From US20260325654A1, “METHODS AND COMPOSITIONS FOR TARGETED PROTEIN DEGRADATION” (Ranok Therapeutics (Hangzhou) Co. Ltd., priority 2023, published 2026) come the findings set out here.

Chains of the proteins cited; added tags and fusions are not shown. Residues count along the entry.
UniProt P01116, 1-188 isoform 2 G12D: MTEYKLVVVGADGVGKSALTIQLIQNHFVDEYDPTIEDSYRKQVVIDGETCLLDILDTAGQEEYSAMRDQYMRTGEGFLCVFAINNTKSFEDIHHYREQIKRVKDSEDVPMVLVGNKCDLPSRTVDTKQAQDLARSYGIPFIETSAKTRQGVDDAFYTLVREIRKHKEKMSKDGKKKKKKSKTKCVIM

Bounds are passed on as bounds.

The target of one experiment is KRAS(G12D)/SOS1 (Homo sapiens, UniProt P01116, G12D). The experiment can be described thus: KRAS(G12D)/SOS1 Homogeneous Time-Resolved Fluorescence (HTRF) Assay. Conditions: read-out: HTRF of KRAS G12D-SOS1 IC50; absence of GTP, 4° C., 3 hr; tested form: formate.
The subject of the next experiment is SW1990. The experiment can be described thus: CellTiter-Glo Reagent cancer cell line proliferation assay, SW1990. Conditions: read-out: SW1990 proliferation IC50; SW1990, KRAS(G12D) homozygous, 24 hr; tested form: formate. For orientation: In ATP-based viability assays light output follows the ATP content of the culture.
The subject of another experiment is AGS. Kind of experiment: CellTiter-Glo Reagent cancer cell line proliferation assay, AGS. The following applies: read-out: AGS proliferation IC50, KRAS(G12D) heterozygous, 24 hr, tested form: formate.
A further experiment has as its system ASPC-1. Kind of experiment: CellTiter-Glo Reagent cancer cell line proliferation assay, ASPC-1. The following applies: read-out: ASPC-1 proliferation IC50; ASPC-1, KRAS(G12D) homozygous, 24 hr; tested form: formate.
The next experiment concerns A427. The experiment can be described thus: CellTiter-Glo Reagent cancer cell line proliferation assay, A427. The following applies: read-out: A427 proliferation IC50; A427, KRAS(G12D) heterozygous, 24 hr; tested form: formate.

With `CN1C[C@H](N2CCN(CC3CCN(c4ccc5c(c4)CN(C4CCC(=O)NC4=O)C5=O)CC3)CC2)C[C@@H]1COc1nc(N2CC3CCC(C2)N3)c2cnc(-c3cc(O)cc4ccccc34)c(F)c2n1` (some centres unmarked), the IC50 was < 100 nM at KRAS(G12D)/SOS1; > 1000 nM with SW1990; > 1000 nM with AGS; > 1000 nM in the experiment on ASPC-1; > 1000 nM in the experiment on A427.
